The source of these data is ChEMBL document CHEMBL5126608, “Development, Optimization, and In Vivo Validation of New Imidazopyridine Chemotypes as Dual TLR7/TLR9 Antagonists through Activity-Directed Sequential Incorporation of Relevant Structural Subunits” (J Med Chem, 2022).

Holding throughout (format): cell-based
Common to all, as to set-up: scale not given: the % may be the effect or the level left

For assay [1], the target named is T1, Toll-like receptor 8 (Homo sapiens) (UniProt Q9NR97).
T1 sequence (whole entry): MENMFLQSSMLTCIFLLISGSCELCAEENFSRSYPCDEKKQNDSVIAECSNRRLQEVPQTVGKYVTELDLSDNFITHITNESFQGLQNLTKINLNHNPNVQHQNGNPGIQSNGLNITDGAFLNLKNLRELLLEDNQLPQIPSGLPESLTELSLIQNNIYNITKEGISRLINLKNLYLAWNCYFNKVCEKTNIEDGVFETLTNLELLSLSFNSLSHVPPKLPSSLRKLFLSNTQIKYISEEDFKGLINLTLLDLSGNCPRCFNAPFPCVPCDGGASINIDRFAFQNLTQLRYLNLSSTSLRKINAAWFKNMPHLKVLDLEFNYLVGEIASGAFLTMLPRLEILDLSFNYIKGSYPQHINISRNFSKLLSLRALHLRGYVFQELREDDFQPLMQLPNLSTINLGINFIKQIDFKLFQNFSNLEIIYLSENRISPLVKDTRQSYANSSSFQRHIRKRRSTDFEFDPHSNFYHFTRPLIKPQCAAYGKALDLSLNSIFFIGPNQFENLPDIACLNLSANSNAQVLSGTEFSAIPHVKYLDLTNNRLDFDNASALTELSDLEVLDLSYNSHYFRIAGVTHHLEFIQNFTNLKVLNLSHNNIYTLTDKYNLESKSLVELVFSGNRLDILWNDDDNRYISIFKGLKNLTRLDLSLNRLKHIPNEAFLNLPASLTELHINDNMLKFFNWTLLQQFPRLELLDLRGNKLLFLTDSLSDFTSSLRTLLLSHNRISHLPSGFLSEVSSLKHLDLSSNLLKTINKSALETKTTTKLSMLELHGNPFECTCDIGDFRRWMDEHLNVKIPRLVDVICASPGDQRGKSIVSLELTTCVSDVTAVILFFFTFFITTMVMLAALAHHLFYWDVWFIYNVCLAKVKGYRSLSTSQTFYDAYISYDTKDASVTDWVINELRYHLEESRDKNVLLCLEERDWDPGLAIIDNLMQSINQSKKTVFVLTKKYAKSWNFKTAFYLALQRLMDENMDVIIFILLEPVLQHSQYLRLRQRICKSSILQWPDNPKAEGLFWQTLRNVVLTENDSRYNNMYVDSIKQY
Kind of assay: Antagonist activity at human TLR8 expressed in HEK-blue hTLR8 cells assessed as inhibition of CL075-induced NFkappaB activation at 20 uM preincubated with compound for 1 hrs followed by CL075 addition and measured next day by SEAP-based spectrophotometry assay.

The target in assay [2] is T2, Toll-like receptor 7 (Homo sapiens) (UniProt Q9NYK1).
T2 sequence (whole entry): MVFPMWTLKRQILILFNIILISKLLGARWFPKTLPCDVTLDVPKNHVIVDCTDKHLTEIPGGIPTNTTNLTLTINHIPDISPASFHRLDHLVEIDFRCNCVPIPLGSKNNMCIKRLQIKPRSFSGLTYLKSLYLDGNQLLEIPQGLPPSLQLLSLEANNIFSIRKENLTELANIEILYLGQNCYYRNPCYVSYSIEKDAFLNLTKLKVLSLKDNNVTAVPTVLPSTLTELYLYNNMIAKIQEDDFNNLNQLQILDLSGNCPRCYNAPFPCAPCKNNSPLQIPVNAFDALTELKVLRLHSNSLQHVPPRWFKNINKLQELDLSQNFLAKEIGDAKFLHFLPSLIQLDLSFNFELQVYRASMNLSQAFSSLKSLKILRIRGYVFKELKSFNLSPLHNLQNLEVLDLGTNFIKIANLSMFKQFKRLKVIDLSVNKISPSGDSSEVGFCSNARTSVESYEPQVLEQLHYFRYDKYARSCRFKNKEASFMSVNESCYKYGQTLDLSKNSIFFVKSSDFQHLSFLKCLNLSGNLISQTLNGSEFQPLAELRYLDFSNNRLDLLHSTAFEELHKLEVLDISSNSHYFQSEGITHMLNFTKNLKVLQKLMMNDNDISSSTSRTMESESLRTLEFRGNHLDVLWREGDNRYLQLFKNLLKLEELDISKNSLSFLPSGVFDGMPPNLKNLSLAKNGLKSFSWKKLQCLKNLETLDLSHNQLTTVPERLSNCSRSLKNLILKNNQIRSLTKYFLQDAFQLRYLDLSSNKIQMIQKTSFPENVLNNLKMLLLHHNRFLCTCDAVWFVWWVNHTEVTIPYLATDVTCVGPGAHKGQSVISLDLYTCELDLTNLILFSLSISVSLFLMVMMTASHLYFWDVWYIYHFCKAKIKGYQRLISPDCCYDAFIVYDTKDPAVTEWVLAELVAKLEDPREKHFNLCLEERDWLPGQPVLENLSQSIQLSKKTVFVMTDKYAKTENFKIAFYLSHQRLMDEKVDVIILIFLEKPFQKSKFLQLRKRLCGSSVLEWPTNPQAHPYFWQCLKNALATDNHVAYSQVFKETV
Kind of assay: Antagonist activity at human TLR7 expressed in HEK-blue hTLR7 cells assessed as inhibition of CL264-induced NFkappaB activation at 40 uM preincubated with compound for 1 hrs followed by CL264 addition and measured next day by SEAP-based spectrophotometry assay.

For assay [3], the target named is T2, Toll-like receptor 7 (Homo sapiens). Description: Antagonist activity at human TLR7 expressed in HEK-blue hTLR7 cells assessed as inhibition of CL264-induced NFkappaB activation at 30 uM preincubated with compound for 1 hrs followed by CL264 addition and measured next day by SEAP-based spectrophotometry assay.
For assay [4] the target is unchanged. Description: Antagonist activity at human TLR7 expressed in HEK-blue hTLR7 cells assessed as inhibition of CL264-induced NFkappaB activation at 20 uM preincubated with compound for 1 hrs followed by CL264 addition and measured next day by SEAP-based spectrophotometry assay.

As for `COc1ccc(-c2cn3ccc(N4CCN(C5CCCC5)CC4)cc3n2)c(OC)c1`, the Activity in assay [1] was below 20%. In the case of `COc1ccc(-c2nc3cc(N4CCN(C5CCCC5)CC4)ccn3c2NC2CCCCC2)c(OC)c1`, the Activity in assay [1] was below 20%. In the case of `COc1ccc(-c2cn3ccccc3n2)cc1`, the Activity in assay [2] was found to be 37%. As for `COc1ccc(-c2cn3ccccc3n2)c(OC)c1`, in assay [2] (filed as antagonist), the Activity was determined as 42%.

In the case of `COc1ccc(-c2nc3cc(N4CCN(C(C)C)CC4)ccn3c2CN2CCCC2)c(OC)c1`, the Activity in assay [1] is below 20%.

As to `COc1ccc(-c2nc3ccccn3c2N)cc1`, the Activity in assay [3] came out at 36%. In the case of `COc1ccc(-c2nc3ccccn3c2N)c(OC)c1`, the Activity in assay [3] (filed as antagonist) was 40%.

With `COc1ccc(-c2nc3cc(N4CCN(C5CCCC5)CC4)ccn3c2CN2CCOCC2)c(OC)c1`, in assay [1], the Activity is below 20%.

With `COc1ccc(-c2cn3ccc(N4CCN(C(C)C)CC4)cc3n2)cc1`, in assay [1], the Activity was below 20%.

Turning to `COc1ccc(-c2nc3cc(N4CCN(C5CCCC5)CC4)ccn3c2CN2CCCC2)c(OCc2ccccc2)c1`, the Activity in assay [4] came to 15%. Take `COc1ccc(-c2nc3cc(N4CCN(C5CCCC5)CC4)ccn3c2CN2CCCC2)c(OC)c1`: the Activity in assay [1] was below 20%. Still for that read-out and setting: the result for `COc1ccc(-c2cn3ccc(N4CCNCC4)cc3n2)c(OCCCN2CCCC2)c1` reads below 20%; that for `COc1ccc(-c2cn3ccc(N4CCN(C5CCCC5)CC4)cc3n2)c(OCCCN2CCCC2)c1`, 35%.
